Source: ChEMBL document CHEMBL5614367, “Hydroxamic acid hybrids: Histone deacetylase inhibitors with anticancer therapeutic potency” (Eur J Med Chem, 2023)

Target: T1, Protein deacetylase HDAC6 (Homo sapiens) (UniProt Q9UBN7)
T1 sequence (whole entry): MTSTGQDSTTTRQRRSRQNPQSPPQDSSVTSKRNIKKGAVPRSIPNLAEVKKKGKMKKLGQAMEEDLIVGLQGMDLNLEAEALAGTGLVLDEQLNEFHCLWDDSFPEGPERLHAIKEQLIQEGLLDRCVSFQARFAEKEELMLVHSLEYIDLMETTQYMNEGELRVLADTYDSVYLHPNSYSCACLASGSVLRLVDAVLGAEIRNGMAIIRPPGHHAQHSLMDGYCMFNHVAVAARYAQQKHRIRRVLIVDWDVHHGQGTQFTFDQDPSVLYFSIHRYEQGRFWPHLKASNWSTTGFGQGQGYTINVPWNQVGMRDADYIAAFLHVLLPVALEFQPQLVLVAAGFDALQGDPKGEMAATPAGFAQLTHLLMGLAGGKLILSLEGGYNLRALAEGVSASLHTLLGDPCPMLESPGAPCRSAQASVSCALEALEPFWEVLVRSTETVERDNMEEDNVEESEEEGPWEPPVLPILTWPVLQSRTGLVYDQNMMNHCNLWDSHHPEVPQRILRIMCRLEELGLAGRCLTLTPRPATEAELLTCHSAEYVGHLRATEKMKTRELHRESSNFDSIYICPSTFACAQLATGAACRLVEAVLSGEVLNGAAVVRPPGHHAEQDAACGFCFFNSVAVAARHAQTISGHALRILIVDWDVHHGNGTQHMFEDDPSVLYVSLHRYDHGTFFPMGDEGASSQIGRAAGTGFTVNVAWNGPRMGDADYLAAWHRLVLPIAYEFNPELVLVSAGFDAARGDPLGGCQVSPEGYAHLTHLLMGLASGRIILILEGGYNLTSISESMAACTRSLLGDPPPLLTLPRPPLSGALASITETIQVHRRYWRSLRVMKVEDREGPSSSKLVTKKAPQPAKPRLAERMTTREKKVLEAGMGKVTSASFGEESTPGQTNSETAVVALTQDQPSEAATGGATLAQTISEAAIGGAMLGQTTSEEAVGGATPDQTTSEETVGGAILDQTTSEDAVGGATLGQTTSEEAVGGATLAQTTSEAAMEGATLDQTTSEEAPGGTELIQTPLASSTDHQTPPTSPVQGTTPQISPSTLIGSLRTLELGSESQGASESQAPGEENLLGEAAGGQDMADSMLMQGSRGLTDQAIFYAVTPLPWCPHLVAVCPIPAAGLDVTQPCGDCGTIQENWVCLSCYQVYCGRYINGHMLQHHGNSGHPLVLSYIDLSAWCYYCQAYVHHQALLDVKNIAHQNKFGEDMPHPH
Assay: Potency index, ratio of vorinostat IC50 to test compound IC50 for inhibition of HDAC6 (unknown origin) using tert-butyl (S)-(6-acetamido- 1-((4-methyl-2-oxo-2H-chromen-7-yl)amino)-1-oxohexan-2-yl) carbamate (Boc-Lys(acetyl)-AMC) as substrate pretreated for 5 mins followed by substrate addition and measured after 30 mins by fluorescence based microplate reader analysis
Conditions: time 35.0 min

Question: `O=C(CCCCCCC(=O)Nc1nc2ccc(OC(F)(F)F)cc2s1)NO` was tested. Which Ratio IC50 did it give?
Answer: 6.5
